Values of other authors as cited in publication PMC6687308 (Journal of natural products, 2017).

Tested on: TRPM2
Conditions: read-out: IC50 on TRPM2-transfected HEK cells; cited from earlier work

NCCOB(c1ccccc1)c1ccccc1 [2-APB, 2-aminoethyl diphenylborinate]
IC50: 1000 nM
